Data: patent publication US4801604A (priority 1987, dated 1989)

Tested on: CF-1 mice
Experiment: Maximal transpinal electroshock anti-convulsant test (absence of tonic extensor convulsion)
Conditions: Example 7 Table 2, subcutaneous, 10 mA, 0.2 sec

## O=C(N[C@@H]1CCCC[C@@H]1N1CCCC1)c1ccc(Cl)c(Cl)c1 (relative stereo)
  Electro-Convulsive Shock Antagonism ED50: 18 mg/kg

Only a part of the results on these compounds is given; other tests are left out.
